The structures appear in SMILES notation. This is a selection; strong and weak results do not stand in their true shares. Some results for these compounds are left out of this collection, so the calls shown say nothing about other tests. The source made the active and inactive calls. No stated cut-off is given here; in the data, active means inhibition mostly above about 56% (no sharp cut-off); inactive means mostly below about 77%.

Protein sequences, listed by entry. Tags and fused reporters are not part of them.
UniProt P9WFX0, whole entry: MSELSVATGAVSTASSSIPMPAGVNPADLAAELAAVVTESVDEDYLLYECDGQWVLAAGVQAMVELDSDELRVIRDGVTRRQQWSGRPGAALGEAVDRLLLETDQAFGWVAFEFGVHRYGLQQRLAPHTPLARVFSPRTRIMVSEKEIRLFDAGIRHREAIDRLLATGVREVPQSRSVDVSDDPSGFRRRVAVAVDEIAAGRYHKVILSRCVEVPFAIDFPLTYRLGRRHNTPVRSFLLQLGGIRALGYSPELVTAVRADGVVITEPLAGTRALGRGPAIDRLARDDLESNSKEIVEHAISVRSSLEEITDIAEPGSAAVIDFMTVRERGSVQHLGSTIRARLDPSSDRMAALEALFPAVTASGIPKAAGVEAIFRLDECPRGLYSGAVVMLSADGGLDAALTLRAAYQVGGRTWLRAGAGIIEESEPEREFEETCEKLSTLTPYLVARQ

This assay has as its target Salicylate synthase (Mycobacterium tuberculosis (strain CDC 1551 / Oshkosh)) (UniProt P9WFX0). Kind of assay: inhibitors of M. tuberculosis MbtI – biochemical, fluorescence intensity, primary screen (AID 493033). As to conditions: purified MbtI enzyme, fluorescence intensity read-out; active compounds read high; concentration not given here.
The inhibition is the change of the read-out against control, counted positive when it falls. In the case of `CN(C)C1(CNC(=O)c2ccncc2)CCCCC1`, the inhibition is inactive: 7.6%. The value for `N#CC(C#N)=Cc1ccccc1` was inactive: -3.2%; that for `O=C(NCC1(N2CCCCC2)CCCCC1)c1ccc2c(c1)OCCO2` was inactive: 140%. The value for `CN1C2CCC1CC(OC(=O)C(O)(c1ccccc1)c1ccccc1)C2` (configuration not stated) was inactive: -11.1%; that for `O=C(NCC1(N2CCOCC2)CCCCC1)c1cnc(Cl)c(Cl)c1` was inactive: -2.7%.

As to `COc1ccc(OC)c(C=C(C#N)C#N)c1`, the inhibition is inactive: -14.9%. Take `CN(C)c1ccc(C(=O)NCC2(N(C)C)CCCCC2)cc1`: the inhibition was inactive: 10.8%.

Values taken from PubChem BioAssay AID493033 (ICCB-Longwood Screening Facility, Harvard Medical School, 2011).
